Measurements taken from US8034602B2 (priority 2006, dated 2011).
Some compounds may have been tested in ways that are not shown here.

Tested on: Corynebacterium glutamicum KFCC-10680
Assay: Viability after NTG treatment (mutagenesis)
Conditions: 200 mg/L of NTG for 20 minutes, smeared onto minimal medium
Experimental: The induction of the mutant strain will be described in more detail, as follows. The parent strain was activated through culturing in an activation medium (Note 2) for 16 hours. The activated strain was cultured in a seed medium (Note 3), which was sterilized at 121° C. for 5 minutes, for 14 hours. 5 ml of the seed culture were washed with 100 mM citric buffer, treated with 200 mg/L of NTG for 20 minutes, and washed with 100 mM phosphate buffer. The NTG-treated strain was then smeared onto the minimal medium (Note 1), and the viability thereof was evaluated. […] In order to obtain a mutant strain resistant to all of alpha-aminobutyric acid, canavanine and arginine hydroxamate, the NTG-treated strain was smeared onto the minimal medium supplemented with canavanine, arginine hydroxamate and alpha-aminobutyric acid at 500 mg/L, 500 mg/L and 10 g/L, respectively, and cultured at 30° C. for 5 days. The emerged colonies were cultured in an Erlenmeyer flask containing an arginine production medium (Note 4) for 72 hours. A mutant strain, which produces arginine and is resistant to canavanine, arginine hydroxamate and alpha-aminobutyric acid, was selected and designated as Corynebacterium glutamicum CJR0500.

For N-methyl-N-nitro-N-nitrosoguanidine, the death rate was 85%.
